Among the data in ChEMBL document CHEMBL4014348, “Design, Multicomponent Synthesis, and Anticancer Activity of a Focused Histone Deacetylase (HDAC) Inhibitor Library with Peptoid-Based Cap Groups” (J Med Chem, 2017) are IC50 values, retold here.

This experiment addresses T1, Histone deacetylase 8 (Homo sapiens, UniProt Q9BY41).
T1 sequence (Q9BY41 whole entry): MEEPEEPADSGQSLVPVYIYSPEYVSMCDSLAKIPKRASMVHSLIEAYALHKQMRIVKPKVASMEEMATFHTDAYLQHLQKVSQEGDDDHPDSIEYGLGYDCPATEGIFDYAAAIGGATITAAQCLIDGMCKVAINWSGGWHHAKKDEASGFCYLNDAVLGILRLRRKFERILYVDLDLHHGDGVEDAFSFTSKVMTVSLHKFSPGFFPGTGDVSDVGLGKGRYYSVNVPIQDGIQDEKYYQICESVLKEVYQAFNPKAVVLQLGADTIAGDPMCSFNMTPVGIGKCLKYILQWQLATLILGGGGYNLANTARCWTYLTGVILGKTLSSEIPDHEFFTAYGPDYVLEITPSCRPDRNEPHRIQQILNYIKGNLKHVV
As to the kind of experiment: Inhibition of human recombinant HDAC8 expressed in Escherichia coli using Z-L-Lys(epsilon-trifluoroacetyl)-AMC as substrate measured after 90 mins by fluorescence assay.

Turning to `O=C(CCCCCCC(=O)Nc1ccccc1)NO` [VORINOSTAT], the IC50 – broadly, the concentration at which inhibition is half-maximal – worked out at 1260 nM.
